Assay results: article PMC2896345

Legend:
[1] = biological target: human RACK1 (receptor of activated kinase 1), 6xHis-tagged (human) (UniProt P63244); assay: AUC; sedimentation equilibrium, 4 °C, 12,000, 15,000 and 18,000 rpm; RACK1 at 0.3 mg/mL; monomer-dimer-tetramer self-association model (SedPhat); step: monomer to dimer
[2] = biological target: human RACK1 (receptor of activated kinase 1), 6xHis-tagged (human) (UniProt P63244); assay: AUC; sedimentation equilibrium, 4 °C, 12,000, 15,000 and 18,000 rpm; RACK1 at 0.3 mg/mL; monomer-dimer-tetramer self-association model (SedPhat); step: dimer to tetramer

Ka [1]: 200000 M⁻¹
Kd [1]: 51 µM
Ka [2]: 600000 M⁻¹
Kd [2]: 17 µM
Substance: human RACK1 (receptor of activated kinase 1), 6xHis-tagged (from UniProt P63244 1-317) (natural protein)
